Patent US20140356376

What was measured:
[1] = tested on: thio-S4497 HC v1-MP-LAFG-PABC-(piperazinoBOR) AAC-193
[2] = tested on: thioFAB 4497 MP-LAFAA-QSY7
[3] = tested on: thioFAB 4497 MP-LAFGA-QSY7

## human cathepsin B
[1]
  Percent cleavage pH 5: 100%
  Percent cleavage pH 7.2: 64%
[2]
  Percent cleavage pH 7.2: 100%
[3]
  Percent cleavage pH 7.2: 100%
